Values of other authors in US4452985A, “2-Guanyl-4-(substituted phenyl) thiazole derivatives” (American Home Products Corporation, priority 1983, dated 1984).

System: H2 histamine receptors
Conditions: cited from earlier work

SMILES: CNC(=C[N+](=O)[O-])NCCSCc1ccc(CN(C)C)o1 [ranitidine]
- H2 antagonist activity relative to cimetidine (in words): greater activity than cimetidine
